# This is a selection; strong and weak results do not stand in their true shares. The source made the active and inactive calls.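 Rule for the calls: active = mean inhibition over replicate wells above about 20% (limit read from the data); inactive = the rest.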
# By UniProt entry, the sequences of proteins in these tests, tags left out.
# UniProt Q9Y5K5, whole entry: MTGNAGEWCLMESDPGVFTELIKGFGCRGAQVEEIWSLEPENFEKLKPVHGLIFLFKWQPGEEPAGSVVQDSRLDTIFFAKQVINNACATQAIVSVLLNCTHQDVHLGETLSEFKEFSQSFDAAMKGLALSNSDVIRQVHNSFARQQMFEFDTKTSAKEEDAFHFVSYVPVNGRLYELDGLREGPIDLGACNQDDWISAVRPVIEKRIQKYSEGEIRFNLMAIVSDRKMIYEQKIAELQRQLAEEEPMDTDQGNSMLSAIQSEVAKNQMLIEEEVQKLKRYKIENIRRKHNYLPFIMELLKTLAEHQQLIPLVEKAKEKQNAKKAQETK
# Target: Ubiquitin carboxyl-terminal hydrolase isozyme L5 (Homo sapiens) (UniProt Q9Y5K5)
# Experiment: proteasome-bound UCH37 DUB activity blockers – biochemical, Ub-AMC cleavage, fluorescence, primary screen (AID 588478);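 note: 0% = compound-free wells with enzyme and 100% = wells lacking proteasome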
# Conditions: purified proteasome/UCH37, Ub-AMC cleavage fluorescence; stronger effect = higher value; concentration not given here
# Outline: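 assay system = human UCH37 enzyme supplied as purified proteasome complex | amount = proteasome at 0.15 nM in the dispensed enzyme solution | schedule = 30 min compound-proteasome preincubation then 25 min substrate reaction, room temperature | measured by = fluorescence, ex 355 nm, em 460 nm | benchmarks = no-proteasome wells (full inhibition) and compound-free wells (no inhibition)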
row,Structure (SMILES),inhibition
1,CCC(=O)N(c1ccccc1)C1(COC)CCN(CCn2nnn(CC)c2=O)CC1,inactive: -1.04%
2,CCC(=O)N(c1ccccc1)C1(COC)CCN(CCc2cccs2)CC1,inactive: 2.1%
